In article PMC6254164, “Synthesis of Novel Hybrid Molecules from Precursors With Known Antiparasitic Activity” (Molecules, 2009):

Tested on: Hep-2 cells
Format: cell-based
Settings: Hep-2 and Vero cells
Protocol: The cytotoxicity of the hybrid compounds and the reference drug, metronidazole, was investigated on Hep-2 and Vero cells using the standard cytotoxicity assay and the trypan blue exclusion method. A cell suspension (10^5 cells/mL RPMI medium-10% inactivated foetal calf serum) was prepared from confluent cultures and 100 µL portions of the suspension were added to the wells of 96-well plates. The cells were incubated for 24 h at 37 °C and 5 % CO2 and the medium in each well was then replaced with fresh 150 µL medium. Solutions of the compounds or the reference drug were prepared and sterilized as described in “Antiamoebic and antigiardial activity” section above. Then, 150 µL-two fold serial dilutions of each of the compounds and the reference drug starting at a concentration of 2000 µg/mL in culture medium were prepared in the plates. After 48 hour incubation at 37 °C and 5 % CO2, the number of cells in each well was determined as follows: The medium in each well was gently replaced with 100 µL of 0.25% (w/v) trypsin-0.53 mM EDTA solution and the plates were incubated for 5 min. at 37 °C to allow cell detachment. Two-hundred microliters of trypan blue solution were added to each well and the plates were, then, placed on ice. The cells were counted in a hemacytometer at the 10X objective. Each compound was assayed in duplicate in each of three independent experiments. […]

## 3-(5-nitrofuran-2-yl)-N-[2-(5-nitroimidazol-1-yl)ethyl]acrylamide [Compound 8]
  cytotoxicity at the lethal concentrations against the parasites: non-cytotoxic
